## Apparent affinities of Ab-14 variants for a coronavirus HR2 peptide

The measurements come from Engelhart et al. 2022 (doi:10.1038/s41597-022-01779-4) through the FLAb antibody collection.

Binding partner: SARS-CoV-2 spike HR2 peptide, sequence PDVDLGDISGINAS.

Each scFv is VH, three GGGGS repeats, VL, as in the parent Ab-14, and differs from it in the CDRs of the heavy chain only.
VH: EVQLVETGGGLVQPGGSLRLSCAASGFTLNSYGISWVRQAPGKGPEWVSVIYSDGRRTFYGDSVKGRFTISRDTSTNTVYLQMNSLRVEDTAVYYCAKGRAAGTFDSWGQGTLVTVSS
VL: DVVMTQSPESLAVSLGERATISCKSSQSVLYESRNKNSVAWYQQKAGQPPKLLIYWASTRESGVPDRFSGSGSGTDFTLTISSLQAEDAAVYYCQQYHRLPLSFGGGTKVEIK

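AAYL49 was designed without a model: most single CDR substitutions and a random sample of double and triple ones. AlphaSeq pools MATa yeast showing the antibodies with MATalpha yeast showing the peptide. Binding brings cells together so that they mate, and sequencing counts the barcode pairs among the diploids. The ratio of observed to expected reads was calibrated, replicate by replicate, on BCL2-family standards whose Kd was known from biolayer interferometry. Each pool was mated in three replicate cultures.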

Substitutions are numbered in sequence along the VH above, starting at 1 (not Kabat).
Values are log10 of the apparent Kd in nM; lower means stronger binding.
Replicates are averaged; those with no signal do not enter the mean.
An entry "nd" has no value in the source: the pair was not observed among the diploids in that replicate. This suggests poor binding but is not conclusive.
Nonspecific signal, from three strains lacking the peptide, appeared in 15% of pairings of library AAYL49, centred on 4.06 (5% of these signals below 2.83); values are not corrected for it. The control count says in how many pairings with the empty strains this scFv gave a signal, with their mean in brackets.

changes,"log10 Kd, replicates",mean log10 Kd (nM),signal with controls
S35W V50N D62S,nd nd nd,nd,0 of 9
S31W Y32M G55C,nd nd nd,nd,2 of 9 (3.49)
L29H V50A Y52P,nd nd nd,nd,0 of 9
S35R F105S,nd nd nd,nd,1 of 9 (4.24)
G26L Y32W F59S,6.15 nd 3.53,4.84,4 of 9 (4.41)
V50T D62V,nd 3.84 nd,3.84,5 of 9 (4.55)
V50W Y60P G103Q,nd nd nd,nd,0 of 9
D54V R56L S63G,nd nd nd,nd,0 of 9
Y52A R57Y T104S,nd nd nd,nd,0 of 9
S31Y A101V T104N,2.01 1.80 1.81,1.87,0 of 9
R57I T58R G103W,nd nd nd,nd,0 of 9
F27D T58R G103D,nd nd nd,nd,2 of 9 (3.58)
S31W I34T A101S,3.71 nd nd,3.71,3 of 9 (3.76)
Y52F G55P G61T,4.54 nd nd,4.54,2 of 9 (4.29)
T28F Y52T S107A,nd nd 3.93,3.93,1 of 9 (3.17)
L29S G61W K65N,nd nd nd,nd,1 of 9 (3.55)
Y60D G61M G99I,nd nd nd,nd,0 of 9
N30P Y32H,5.89 3.75 nd,4.82,6 of 9 (4.31)
D54Q F59Y T104H,nd nd nd,nd,0 of 9
G33K T58R,nd nd nd,nd,0 of 9
Y32G T104M S107I,3.48 nd nd,3.48,3 of 9 (3.88)
R56N T58P Y60P,nd nd nd,nd,1 of 9 (2.58)
G33V K65T F105W,nd nd nd,nd,1 of 9 (3.15)
S35A G99V A102R,3.67 nd nd,3.67,0 of 9
D54A G55C S63Q,nd nd nd,nd,0 of 9
T28F V50P T58V,5.65 3.93 nd,4.79,3 of 9 (3.76)
F27H K65T S107K,nd 3.44 5.00,4.22,0 of 9
Y32H D54N A101E,2.48 3.22 5.12,3.61,1 of 9 (4.55)
N30R Y60Q G99K,nd nd nd,nd,0 of 9
T28M R56D V64N,5.46 nd 4.53,5.00,5 of 9 (4.16)
T28S A101T S107Y,0.03 0.34 0.18,0.19,4 of 9 (3.70)
Y32F G33D A102P,nd nd nd,nd,1 of 9 (4.91)
G99F T104P F105W,nd nd nd,nd,0 of 9
S31Q G55M T58I,nd nd nd,nd,0 of 9
D54C V64L R100Q,nd nd nd,nd,1 of 9 (5.15)
Y32V G33H R57N,nd nd nd,nd,1 of 9 (3.23)
Y52T G61S R100C,nd nd nd,nd,1 of 9 (4.52)
G55H S63W K65V,nd nd nd,nd,0 of 9
F59Y A102K,0.39 0.80 1.10,0.76,0 of 9
T58F Y60V T104Q,nd nd nd,nd,0 of 9
T28P A102V T104L,6.20 3.18 5.06,4.82,3 of 9 (5.19)
F27R I51V R100P,nd nd nd,nd,0 of 9
F59M D62A S107Q,1.63 1.78 1.82,1.74,2 of 9 (4.53)
G26N D62R,5.38 nd nd,5.38,1 of 9 (5.40)
V50M D54G S107N,nd nd nd,nd,0 of 9
L29M V64S D106N,3.60 nd 4.91,4.25,1 of 9 (3.51)
L29A G55Q R100M,5.67 3.98 nd,4.83,2 of 9 (3.84)
G26K G33E V64S,nd nd nd,nd,0 of 9
I51W S53V K65L,nd nd nd,nd,1 of 9 (3.60)
S35D S107E,nd nd nd,nd,1 of 9 (3.76)
G26K T28C S31K,1.70 1.67 1.71,1.69,1 of 9 (3.63)
F27V A102R T104L,nd nd nd,nd,1 of 9 (4.57)

Again, the first 4 entries without any signal:

changes,"log10 Kd, replicates",mean log10 Kd (nM),signal with controls
S35W V50N D62S,nd nd nd,nd,0 of 9
S31W Y32M G55C,nd nd nd,nd,2 of 9 (3.49)
L29H V50A Y52P,nd nd nd,nd,0 of 9
S35R F105S,nd nd nd,nd,1 of 9 (4.24)

For reference, the parent read 0.65 as the reference entry and 4.11 (one replicate of three) as a member of this library.